This passage reports Ki results from patent publication US8959984B2, “Proteome-wide quantification of small molecule binding to cellular target proteins” (priority 2007, dated 2015).

Sequences of proteins named here, by UniProt entry; tags and fusion partners are left off. A change or cut given only in a name is not applied to a line headed by its entry.
UniProt P43490: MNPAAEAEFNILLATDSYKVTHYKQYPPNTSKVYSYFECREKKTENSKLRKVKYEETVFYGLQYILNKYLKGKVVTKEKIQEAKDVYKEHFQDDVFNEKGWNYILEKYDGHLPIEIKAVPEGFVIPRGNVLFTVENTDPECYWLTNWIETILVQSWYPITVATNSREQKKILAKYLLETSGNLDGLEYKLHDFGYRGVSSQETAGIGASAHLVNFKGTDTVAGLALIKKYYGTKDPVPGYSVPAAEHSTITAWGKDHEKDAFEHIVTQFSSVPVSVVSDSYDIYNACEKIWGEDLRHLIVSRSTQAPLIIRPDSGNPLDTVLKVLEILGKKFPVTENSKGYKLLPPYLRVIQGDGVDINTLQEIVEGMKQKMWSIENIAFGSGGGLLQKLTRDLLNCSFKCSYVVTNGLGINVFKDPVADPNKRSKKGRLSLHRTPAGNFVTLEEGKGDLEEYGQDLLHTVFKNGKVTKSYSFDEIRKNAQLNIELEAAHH
UniProt P14735, whole entry: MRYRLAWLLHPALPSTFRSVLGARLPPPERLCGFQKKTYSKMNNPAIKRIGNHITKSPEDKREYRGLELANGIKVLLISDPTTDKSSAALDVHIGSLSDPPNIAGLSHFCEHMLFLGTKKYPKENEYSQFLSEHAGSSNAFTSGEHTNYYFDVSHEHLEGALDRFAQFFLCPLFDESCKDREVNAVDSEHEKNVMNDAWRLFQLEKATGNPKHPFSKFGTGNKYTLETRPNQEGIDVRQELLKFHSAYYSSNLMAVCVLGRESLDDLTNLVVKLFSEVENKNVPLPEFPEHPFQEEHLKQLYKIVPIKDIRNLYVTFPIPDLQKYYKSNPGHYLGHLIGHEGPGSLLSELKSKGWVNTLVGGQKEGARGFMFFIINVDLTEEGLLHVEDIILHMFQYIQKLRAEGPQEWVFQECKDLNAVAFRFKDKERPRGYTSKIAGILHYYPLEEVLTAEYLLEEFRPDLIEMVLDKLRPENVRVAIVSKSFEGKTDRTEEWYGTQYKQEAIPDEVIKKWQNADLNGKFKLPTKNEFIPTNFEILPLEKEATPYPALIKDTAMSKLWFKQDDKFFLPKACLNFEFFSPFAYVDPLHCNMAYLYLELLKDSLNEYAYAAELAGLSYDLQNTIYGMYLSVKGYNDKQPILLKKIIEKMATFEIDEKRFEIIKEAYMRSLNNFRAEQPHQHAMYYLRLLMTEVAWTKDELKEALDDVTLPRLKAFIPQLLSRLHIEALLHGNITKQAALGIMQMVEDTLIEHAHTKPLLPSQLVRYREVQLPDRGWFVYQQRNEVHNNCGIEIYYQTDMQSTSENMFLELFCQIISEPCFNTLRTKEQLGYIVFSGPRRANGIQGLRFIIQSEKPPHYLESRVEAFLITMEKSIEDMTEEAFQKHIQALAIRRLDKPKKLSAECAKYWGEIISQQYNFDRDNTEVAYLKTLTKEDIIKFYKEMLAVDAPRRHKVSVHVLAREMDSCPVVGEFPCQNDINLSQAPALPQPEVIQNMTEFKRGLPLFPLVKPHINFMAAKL
UniProt Q00535, whole entry: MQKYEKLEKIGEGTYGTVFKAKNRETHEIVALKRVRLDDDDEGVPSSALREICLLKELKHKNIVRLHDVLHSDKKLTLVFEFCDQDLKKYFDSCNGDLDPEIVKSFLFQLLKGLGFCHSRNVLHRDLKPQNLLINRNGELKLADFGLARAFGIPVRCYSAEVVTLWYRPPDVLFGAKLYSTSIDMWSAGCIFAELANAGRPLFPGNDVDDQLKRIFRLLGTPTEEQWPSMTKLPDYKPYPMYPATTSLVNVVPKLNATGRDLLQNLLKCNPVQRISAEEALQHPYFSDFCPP
UniProt P19784, whole entry: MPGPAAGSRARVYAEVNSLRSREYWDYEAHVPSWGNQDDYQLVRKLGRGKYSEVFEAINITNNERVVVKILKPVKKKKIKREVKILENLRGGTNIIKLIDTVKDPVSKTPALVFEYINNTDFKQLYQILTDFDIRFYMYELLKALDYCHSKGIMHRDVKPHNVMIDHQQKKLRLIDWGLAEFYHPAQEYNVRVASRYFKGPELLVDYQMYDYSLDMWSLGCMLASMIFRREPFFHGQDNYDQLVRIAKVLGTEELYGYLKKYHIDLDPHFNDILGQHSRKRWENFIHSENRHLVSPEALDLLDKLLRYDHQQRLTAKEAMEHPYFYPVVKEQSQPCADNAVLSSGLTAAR
UniProt Q9P0L2: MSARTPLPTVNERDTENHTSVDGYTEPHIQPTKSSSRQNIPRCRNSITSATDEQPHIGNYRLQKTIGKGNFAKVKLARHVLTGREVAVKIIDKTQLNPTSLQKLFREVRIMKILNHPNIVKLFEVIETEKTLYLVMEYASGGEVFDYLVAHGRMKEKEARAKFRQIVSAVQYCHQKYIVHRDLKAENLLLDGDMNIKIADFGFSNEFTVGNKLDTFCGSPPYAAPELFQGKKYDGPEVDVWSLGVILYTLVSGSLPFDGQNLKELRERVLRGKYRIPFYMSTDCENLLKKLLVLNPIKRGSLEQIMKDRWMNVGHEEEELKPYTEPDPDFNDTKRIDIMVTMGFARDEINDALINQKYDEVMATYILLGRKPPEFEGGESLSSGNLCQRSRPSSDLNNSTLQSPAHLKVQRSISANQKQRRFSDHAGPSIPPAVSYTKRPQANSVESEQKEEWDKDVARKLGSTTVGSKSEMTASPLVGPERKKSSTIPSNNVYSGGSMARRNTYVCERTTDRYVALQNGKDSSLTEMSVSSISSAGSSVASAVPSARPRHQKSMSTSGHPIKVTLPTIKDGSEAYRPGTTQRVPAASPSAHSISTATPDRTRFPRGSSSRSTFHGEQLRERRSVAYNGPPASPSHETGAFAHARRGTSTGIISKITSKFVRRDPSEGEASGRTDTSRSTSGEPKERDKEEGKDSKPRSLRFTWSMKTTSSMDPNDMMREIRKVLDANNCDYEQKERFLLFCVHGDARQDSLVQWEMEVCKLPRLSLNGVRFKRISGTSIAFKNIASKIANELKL

What all share (assay): Ki determination for immobilized VI16742: two consecutive incubations, control beads, ligand concentration and incubation time controls (Tables 7, 8)
Type in all cases: binding

The target of experiment [1] is T1, cellular target proteins in HeLa cell lysate (Homo sapiens, UniProt Q9BZL6).
T1 sequence (Q9BZL6 1-878): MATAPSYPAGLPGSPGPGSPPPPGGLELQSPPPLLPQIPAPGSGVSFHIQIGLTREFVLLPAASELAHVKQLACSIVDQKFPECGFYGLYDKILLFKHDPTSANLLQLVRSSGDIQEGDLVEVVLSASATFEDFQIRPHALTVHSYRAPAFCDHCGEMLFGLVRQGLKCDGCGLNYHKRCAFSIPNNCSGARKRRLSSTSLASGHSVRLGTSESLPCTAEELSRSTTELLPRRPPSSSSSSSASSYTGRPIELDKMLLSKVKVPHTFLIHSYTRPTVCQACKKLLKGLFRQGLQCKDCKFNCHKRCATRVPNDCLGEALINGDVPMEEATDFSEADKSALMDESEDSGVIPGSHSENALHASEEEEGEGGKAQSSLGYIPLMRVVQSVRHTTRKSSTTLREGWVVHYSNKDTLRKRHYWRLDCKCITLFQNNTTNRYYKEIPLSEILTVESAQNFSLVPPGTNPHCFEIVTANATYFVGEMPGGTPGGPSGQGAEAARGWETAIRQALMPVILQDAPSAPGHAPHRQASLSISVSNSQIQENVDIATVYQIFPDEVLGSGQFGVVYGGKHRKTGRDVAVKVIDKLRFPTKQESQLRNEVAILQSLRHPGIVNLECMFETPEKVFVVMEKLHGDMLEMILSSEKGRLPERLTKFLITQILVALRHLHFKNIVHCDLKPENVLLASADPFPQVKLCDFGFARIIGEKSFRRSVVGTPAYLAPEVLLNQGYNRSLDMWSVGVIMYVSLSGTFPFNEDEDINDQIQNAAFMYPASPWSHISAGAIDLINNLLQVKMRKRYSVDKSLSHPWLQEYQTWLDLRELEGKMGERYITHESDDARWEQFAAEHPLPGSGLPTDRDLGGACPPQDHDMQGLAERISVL
The conditions noted are these: Ki (VI16742), PKD2 (PRKD2) IPI00009334.

In experiment [2] the target is cellular target proteins in HeLa cell lysate (Homo sapiens, UniProt P43490). The conditions noted are these: Ki (VI16742), NAMPT IPI00018873.
The target of experiment [3] is cellular target proteins in HeLa cell lysate (Homo sapiens, UniProt P14735). The following applies: Ki (VI16742), IDE IPI00220373.
Experiment [4] addresses cellular target proteins in HeLa cell lysate (Homo sapiens, UniProt Q00535). The following applies: Ki (VI16742), CDK5 IPI00023530.
Experiment [5] has as its target cellular target proteins in HeLa cell lysate (Homo sapiens, UniProt P19784). The conditions noted are these: Ki (VI16742), CK2a2 (CSNK2A2) IPI00020602.
Experiment [6] addresses T2, cellular target proteins in HeLa cell lysate (Homo sapiens, UniProt Q9NPF4).
T2 sequence (Q9NPF4 1-335): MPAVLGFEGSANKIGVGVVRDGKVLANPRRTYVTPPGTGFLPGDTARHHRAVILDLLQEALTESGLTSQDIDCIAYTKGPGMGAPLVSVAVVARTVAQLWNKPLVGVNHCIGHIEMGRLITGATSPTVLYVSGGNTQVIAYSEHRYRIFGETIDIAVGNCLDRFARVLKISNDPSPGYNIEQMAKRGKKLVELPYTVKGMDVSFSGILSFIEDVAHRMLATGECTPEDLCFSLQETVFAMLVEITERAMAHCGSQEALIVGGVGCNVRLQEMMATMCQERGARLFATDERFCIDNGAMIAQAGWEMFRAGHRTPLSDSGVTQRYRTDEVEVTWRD
The following applies: Ki (VI16742), OSGEP IPI00015809.

In experiment [7] the target is cellular target proteins in HeLa cell lysate (Homo sapiens, UniProt Q9P0L2). The following applies: Ki (VI16742), MARK1 IPI00185037.

Regarding `CC(C)n1c(=O)ccc2cnc(Nc3ccc(OCCN)cc3)nc21` [V16742], the Ki – broadly, the equilibrium dissociation constant of an inhibitor or competing ligand from its target – was 3.56 µM in experiment [1]; 40.6 µM in experiment [2]; 20.7 µM in experiment [3]; 3.75 µM in experiment [4]; 6.59 µM in experiment [5]; 14 µM in experiment [6]. For the same compound, the inhibition constant Ki in experiment [7] is 7.45 µM.
